Some compounds may have been tested in ways that are not shown here.
Legend:
[1] = test system: RhBchE; test: Time-dependent inhibition kinetics of RhBchE by ETP; settings: Table 5; 50 mM potassium phosphate pH 7.2, 25° C.
[2] = molecular target: WT HuBchE (Homo sapiens, UniProt P06276); test: OP inhibition of WT HuBchE, remaining activity (Ellman)
[3] = molecular target: HuBchE (Homo sapiens, UniProt P06276); test: Time-dependent inhibition kinetics of HuBchE by OP compounds
[4] = molecular target: G117H/E197Q HuBchE (Homo sapiens, UniProt P06276, E225Q/G145H); test: OP inhibition of G117H/E197Q HuBchE, remaining activity (Ellman); settings: 0.5 mM compound, 48 hr at 4° C.; 1 mM BchI; buffer = 100%

By UniProt entry, the sequences of proteins in these tests, tags left out. Where a name states a change or a piece, a line headed by the entry shows the natural chain unless it says otherwise. Residues count along the entry.
UniProt P06276, 29-602 limits assumed: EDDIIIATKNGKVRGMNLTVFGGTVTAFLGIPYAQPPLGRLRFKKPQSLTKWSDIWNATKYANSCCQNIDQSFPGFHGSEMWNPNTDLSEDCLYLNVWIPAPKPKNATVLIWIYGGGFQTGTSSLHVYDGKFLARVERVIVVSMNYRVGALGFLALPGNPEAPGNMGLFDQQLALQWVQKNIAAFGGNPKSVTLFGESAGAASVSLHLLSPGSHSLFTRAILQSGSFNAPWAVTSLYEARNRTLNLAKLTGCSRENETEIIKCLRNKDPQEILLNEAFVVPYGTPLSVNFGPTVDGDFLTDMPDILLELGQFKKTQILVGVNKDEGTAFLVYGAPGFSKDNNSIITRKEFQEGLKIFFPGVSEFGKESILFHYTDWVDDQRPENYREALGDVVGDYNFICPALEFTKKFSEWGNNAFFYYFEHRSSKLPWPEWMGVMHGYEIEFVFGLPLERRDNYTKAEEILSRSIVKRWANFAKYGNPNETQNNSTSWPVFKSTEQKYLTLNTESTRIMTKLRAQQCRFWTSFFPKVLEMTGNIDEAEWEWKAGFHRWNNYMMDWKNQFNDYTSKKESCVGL
UniProt P06276, 29-602 G145H/E225Q limits assumed: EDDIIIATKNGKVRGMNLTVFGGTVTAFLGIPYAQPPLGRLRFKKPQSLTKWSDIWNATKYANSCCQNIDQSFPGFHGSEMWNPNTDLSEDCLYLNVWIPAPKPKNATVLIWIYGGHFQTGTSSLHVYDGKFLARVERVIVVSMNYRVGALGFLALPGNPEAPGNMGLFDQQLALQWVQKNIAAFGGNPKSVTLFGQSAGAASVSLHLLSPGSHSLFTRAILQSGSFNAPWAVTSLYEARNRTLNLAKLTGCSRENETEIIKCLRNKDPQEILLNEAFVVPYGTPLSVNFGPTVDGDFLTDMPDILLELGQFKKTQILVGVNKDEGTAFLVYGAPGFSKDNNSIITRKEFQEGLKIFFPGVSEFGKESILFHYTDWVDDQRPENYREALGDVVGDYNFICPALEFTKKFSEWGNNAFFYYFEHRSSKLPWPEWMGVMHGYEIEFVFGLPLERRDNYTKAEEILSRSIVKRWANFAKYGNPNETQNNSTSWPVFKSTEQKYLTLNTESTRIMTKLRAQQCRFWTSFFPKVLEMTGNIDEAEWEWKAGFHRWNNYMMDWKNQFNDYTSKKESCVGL

CCOP(=O)(OCC)SCC[N+](C)(C)C
ki inhibition rate constant, RhBchE [1]: 764.4 ± 40.5 × 10^3 (M^−1 min^−1)
remaining enzyme activity, WT ([2]; 0.5 mM compound, 48 hr at 4° C., 1 mM BchI, buffer = 100%): 0.02%
WT remaining activity when BchI hydrolysis examined for longer periods of time ([2]; post incubation with 0.5 mM compound): no detectable activity
ki inhibition rate constant, HuBchE ([3]; Table 5, 50 mM potassium phosphate pH 7.2, 25° C.): 1860 ± 135 × 10^3 (M^−1 min^−1)
ki × 10^3 (M^−1min^−1) ([3]; Table 7, huBchE): 1860 ± 135 × 10^3 (M^−1min^−1)
remaining enzyme activity, G117H/E197Q [4]: 12.77%

From US20070286846A1, “Novel methods for ester detoxication” (published 2007)
